Test results reported in PubChem BioAssay AID929 (National Center for Advancing Translational Sciences (NCATS), 2007).
Only a part is listed here, and it is no random draw. Results filed as inconclusive are left out. Activity calls are given as the source filed them. The call rests on the fitted dose curve; in most records, active means well fitted inhibition curve with a large enough effect in the main read-out, with a control signal flat; inconclusive means small, poorly fitted or top-dose-only effect, or a change in a side signal; inactive means no such curve, though single readings can be large or run the other way.

Amino acid sequences for entries named in this document (tags omitted). Residues count along the entry.
UniProt P29466, 120-297 limits assumed: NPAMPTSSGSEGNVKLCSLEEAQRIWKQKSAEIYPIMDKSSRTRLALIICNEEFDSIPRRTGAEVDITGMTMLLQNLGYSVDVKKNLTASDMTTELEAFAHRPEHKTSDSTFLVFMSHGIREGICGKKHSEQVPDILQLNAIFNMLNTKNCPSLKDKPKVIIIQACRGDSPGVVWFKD
UniProt P29466, 317-404 limits assumed: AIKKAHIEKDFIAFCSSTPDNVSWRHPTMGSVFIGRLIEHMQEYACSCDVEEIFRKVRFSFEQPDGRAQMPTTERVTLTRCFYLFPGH

What follows are compounds tested against Caspase-1 (Homo sapiens) (UniProt P29466) (assay: Concentration-Response Counterscreen for Redox Active Inhibitors of Caspase-1: Cysteine). Conditions: recombinant caspase-1, fluorogenic substrate, cysteine buffer; at 57.5 µM (top of the series).
From the text: NIH Molecular Libraries Screening Centers Network [MLSCN]
NIH Chemical Genomics Center [NCGC]
PI Name: Dr. James Wells,
Dr. Enrique Perez-Paya, Dr.Janice Williams, Dr. Dennis Wolan, a person
The caspases (Cysteine Aspartyl Protease) comprise a related family of 14 dimeric proteases that are critical mediators of apoptosis (programmed cell death) and inflammation. The caspases represent an important class of drug targets for stroke, ischemia, cancer and inflammatory diseases. […] One goal of this project was to identify compounds that act as allosteric inhibitors via stabilizing the procaspase form of the enzyme. […]
The biochemical assay was configured using purified caspase 1 at a high enzyme concentration to promote formation of the homodimers and thus facilitate the identification of allosteric inhibitors. […] After initiation of the assay with substrate the plates were rapidly read using an automated robotic system (Kalypsys, Inc.) to maintain consistent timing. […] Product formation was also measured after 1 hour. […]
Caspase 1 was prepared in buffer (50 mM HEPES pH 7.5, 50 mM KCl, 200 mM NaCl, 10 mM Cys (Aldrich cat# 861677), 0.1% CHAPS) at a concentration of 66.6 nM and 3 uL was dispensed to all wells using black solid Kalypsys 1536-well plates. […] The plates were then exposed using 405 nm excitation/520 nm emission filters for 4 sec and read at 20 sec intervals for 3 min. […]
With `C/C1=C2N=C(/C=C3N=C(/C(C)=C4\[N-][C@@](C)([C@H]5N=C1[C@@](C)(CCC(=O)NC[C@H](C)OP(=O)([O-])O[C@@H]1[C@H](O)[C@H](n6cnc7cc(C)c(C)cc76)O[C@@H]1CO)[C@@H]5CC(N)=O)[C@](C)(CC(N)=O)[C@H]4CCC(N)=O)[C@@](C)(CC(N)=O)[C@@H]\3CCC(N)=O)C(C)(C)[C@@H]/2CCC(N)=O.[C-]#N.[Co+3]` the activity change, negative = inhibition was inactive: -21.7%.
